Experimental data as given in patent US20140296484A1, “Cyclin Based Inhibitors of CDK2 and CDK4” (University of South Carolina, priority 2013, published 2014).

Sequences of proteins named here, by UniProt entry; tags and fusion partners are left off.
UniProt P24385, whole entry: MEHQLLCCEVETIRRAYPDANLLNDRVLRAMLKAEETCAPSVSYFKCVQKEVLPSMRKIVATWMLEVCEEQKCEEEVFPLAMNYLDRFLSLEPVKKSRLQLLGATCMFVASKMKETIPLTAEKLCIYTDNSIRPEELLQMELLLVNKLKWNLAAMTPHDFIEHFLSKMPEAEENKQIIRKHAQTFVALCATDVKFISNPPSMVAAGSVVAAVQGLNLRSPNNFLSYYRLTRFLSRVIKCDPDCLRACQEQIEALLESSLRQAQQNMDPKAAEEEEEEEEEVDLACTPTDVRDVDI

Biological target: CDK4/Cyclin D1 (Homo sapiens, UniProt P24385)
Assay: In vitro kinase assay, 32P filter capture with GST-Rb substrate
Assay type: biochemical

IC50: 250 µM
SMILES: CC[C@H](C)[C@H](NC(=O)[C@H](CC(C)C)NC(=O)[C@H](CCCNC(=N)N)NC(=O)[C@@H](N)CCCNC(=N)N)C(=O)N[C@@H](Cc1ccc(F)cc1)C(N)=O [RRLIpfF]
